One compound from publication PMC3983056 (PLoS Pathogens, 2014) can be followed below.

The test deals with HIV p24 antigen in latently infected CD4 T-cell cultures. In words: Flow cytometry analysis of p24 expression in the in vitro latency model. The note with it: 3.0 µM VOR, 48 hours, live cell gate. For orientation: A flow cytometer gives signals particle by particle.

`O=C(CCCCCCC(=O)Nc1ccccc1)NO` [VOR, suberoylanilide hydroxamic acid]: the “cells expressing p24 antigen” value was “approximately 4.4%”. For the same compound, the “cells expressing p24 antigen” value (listed as SAHA) was found to be 4.4%.
